In patent US8530504B2, “Pyrazolothiazole compound” (Eisai R&D Management Co., Ltd., priority 2009, dated 2013):
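Further: nonspecific binding was determined with a 4,000-fold excess of unlabelled sauvagine and subtracted from every reading.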

Sequences of proteins named here, by UniProt entry; tags and fusion partners are left off. Residues count along the entry.
UniProt P34998, 24-415: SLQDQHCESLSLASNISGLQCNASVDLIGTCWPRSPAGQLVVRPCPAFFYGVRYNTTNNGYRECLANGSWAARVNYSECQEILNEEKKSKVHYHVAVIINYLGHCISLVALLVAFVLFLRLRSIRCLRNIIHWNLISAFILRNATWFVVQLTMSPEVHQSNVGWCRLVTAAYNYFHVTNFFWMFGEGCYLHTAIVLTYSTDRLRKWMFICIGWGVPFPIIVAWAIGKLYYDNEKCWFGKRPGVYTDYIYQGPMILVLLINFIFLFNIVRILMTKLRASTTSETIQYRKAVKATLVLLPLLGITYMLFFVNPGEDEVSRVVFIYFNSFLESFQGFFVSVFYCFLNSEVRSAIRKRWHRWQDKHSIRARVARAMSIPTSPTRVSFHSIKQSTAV

The compounds below were run against human CRFR1 (Homo sapiens (Human), UniProt P34998) (assay: CRFR1 Binding Test). Details: competition with 100 pM 125I-CRF, SPA method, membrane fraction of human CRFR1-expressing HEK293 cells; read-out: CRF1 receptor binding capacity IC50.
Compound `CCCN(CC1C2COCC21)c1c(OC)nn2c(-c3c(OC)cc(COC)cc3OC)csc12` (single isomer, unassigned; diastereomer 1) [Example 93, 3-[2,6-Dimethoxy-4-(methoxymethyl)phenyl]-6-methoxy-N-[3-oxabicyclo[3.1.0]hex-6-ylmethyl]-N-propylpyrazolo[5,1-b][1,3]thiazole-7-amine (diastereomer 1)] has an IC50 of 45 nM. With `CCCN(CC1C2COCC21)c1c(OC)nn2c(-c3c(OC)cc(COC)cc3OC)csc12` (single isomer, unassigned; diastereomer 2) [Example 95, 3-[2,6-Dimethoxy-4-(methoxymethyl)phenyl]-6-methoxy-N-[3-oxabicyclo[3.1.0]hex-6-ylmethyl]-N-propylpyrazolo[5,1-b][1,3]thiazole-7-amine (diastereomer 2)] the IC50 was 80 nM. For `CCCN(CC1C2COCC21)c1c(OC)nn2c(-c3c(OC)cc(C#N)cc3OC)csc12` (single isomer, unassigned; diastereomer 1) [Example 101], the IC50 was 99 nM.
